Results reported in article PMC5047057 (Oral oncology, 2016).

Tests used:
[1] = system: patients with recurrent/metastatic head and neck squamous cell carcinoma (HNSCC); details: in vivo
[2] = system: platin-resistant, cetuximab-naïve RM HNSCC; details: cetuximab monotherapy; cited from earlier work

## cetuximab
[1]
  Intra-patient dose reductions: did not occur
[2]
  Disease control: 46%
